# Legend:
# Amino acid sequences for entries named in this document (tags omitted). Residues count along the entry.
# UniProt P07949, 29-1114 limits assumed: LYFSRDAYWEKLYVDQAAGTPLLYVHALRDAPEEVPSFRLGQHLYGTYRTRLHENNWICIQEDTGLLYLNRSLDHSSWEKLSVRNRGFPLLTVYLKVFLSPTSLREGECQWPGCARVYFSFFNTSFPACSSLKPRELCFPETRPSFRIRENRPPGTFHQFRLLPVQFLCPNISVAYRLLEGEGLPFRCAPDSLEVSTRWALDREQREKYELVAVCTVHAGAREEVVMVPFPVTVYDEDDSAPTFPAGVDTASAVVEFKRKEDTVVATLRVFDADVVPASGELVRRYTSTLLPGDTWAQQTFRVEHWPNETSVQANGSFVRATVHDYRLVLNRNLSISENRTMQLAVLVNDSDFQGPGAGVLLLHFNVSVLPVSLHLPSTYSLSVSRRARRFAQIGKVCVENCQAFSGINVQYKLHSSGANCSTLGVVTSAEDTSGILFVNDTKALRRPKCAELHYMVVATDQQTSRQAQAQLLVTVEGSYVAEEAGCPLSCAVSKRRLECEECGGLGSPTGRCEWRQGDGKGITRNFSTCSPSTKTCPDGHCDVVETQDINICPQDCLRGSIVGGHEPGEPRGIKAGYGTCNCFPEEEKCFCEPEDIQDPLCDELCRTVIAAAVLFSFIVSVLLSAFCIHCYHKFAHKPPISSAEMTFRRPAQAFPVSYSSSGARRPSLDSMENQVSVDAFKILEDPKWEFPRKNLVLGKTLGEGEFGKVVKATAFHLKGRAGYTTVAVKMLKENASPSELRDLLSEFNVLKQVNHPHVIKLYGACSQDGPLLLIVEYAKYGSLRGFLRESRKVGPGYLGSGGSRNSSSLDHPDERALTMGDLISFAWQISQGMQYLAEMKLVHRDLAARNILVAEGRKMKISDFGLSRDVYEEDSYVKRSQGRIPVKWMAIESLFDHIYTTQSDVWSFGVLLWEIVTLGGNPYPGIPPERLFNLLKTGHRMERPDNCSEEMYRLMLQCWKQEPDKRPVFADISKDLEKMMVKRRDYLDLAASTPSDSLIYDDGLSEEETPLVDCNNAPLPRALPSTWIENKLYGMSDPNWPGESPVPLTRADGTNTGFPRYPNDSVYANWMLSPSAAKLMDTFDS
# UniProt Q96GD4, whole entry: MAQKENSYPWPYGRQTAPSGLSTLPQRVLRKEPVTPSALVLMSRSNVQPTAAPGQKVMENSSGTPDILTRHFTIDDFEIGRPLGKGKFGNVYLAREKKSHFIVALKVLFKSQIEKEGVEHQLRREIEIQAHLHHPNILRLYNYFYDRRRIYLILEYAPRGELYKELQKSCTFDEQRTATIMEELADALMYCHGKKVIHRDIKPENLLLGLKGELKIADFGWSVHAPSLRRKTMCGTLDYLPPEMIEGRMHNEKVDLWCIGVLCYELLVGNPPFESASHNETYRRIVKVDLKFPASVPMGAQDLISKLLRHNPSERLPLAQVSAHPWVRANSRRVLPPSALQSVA
# UniProt P35968, 20-1356 limits assumed: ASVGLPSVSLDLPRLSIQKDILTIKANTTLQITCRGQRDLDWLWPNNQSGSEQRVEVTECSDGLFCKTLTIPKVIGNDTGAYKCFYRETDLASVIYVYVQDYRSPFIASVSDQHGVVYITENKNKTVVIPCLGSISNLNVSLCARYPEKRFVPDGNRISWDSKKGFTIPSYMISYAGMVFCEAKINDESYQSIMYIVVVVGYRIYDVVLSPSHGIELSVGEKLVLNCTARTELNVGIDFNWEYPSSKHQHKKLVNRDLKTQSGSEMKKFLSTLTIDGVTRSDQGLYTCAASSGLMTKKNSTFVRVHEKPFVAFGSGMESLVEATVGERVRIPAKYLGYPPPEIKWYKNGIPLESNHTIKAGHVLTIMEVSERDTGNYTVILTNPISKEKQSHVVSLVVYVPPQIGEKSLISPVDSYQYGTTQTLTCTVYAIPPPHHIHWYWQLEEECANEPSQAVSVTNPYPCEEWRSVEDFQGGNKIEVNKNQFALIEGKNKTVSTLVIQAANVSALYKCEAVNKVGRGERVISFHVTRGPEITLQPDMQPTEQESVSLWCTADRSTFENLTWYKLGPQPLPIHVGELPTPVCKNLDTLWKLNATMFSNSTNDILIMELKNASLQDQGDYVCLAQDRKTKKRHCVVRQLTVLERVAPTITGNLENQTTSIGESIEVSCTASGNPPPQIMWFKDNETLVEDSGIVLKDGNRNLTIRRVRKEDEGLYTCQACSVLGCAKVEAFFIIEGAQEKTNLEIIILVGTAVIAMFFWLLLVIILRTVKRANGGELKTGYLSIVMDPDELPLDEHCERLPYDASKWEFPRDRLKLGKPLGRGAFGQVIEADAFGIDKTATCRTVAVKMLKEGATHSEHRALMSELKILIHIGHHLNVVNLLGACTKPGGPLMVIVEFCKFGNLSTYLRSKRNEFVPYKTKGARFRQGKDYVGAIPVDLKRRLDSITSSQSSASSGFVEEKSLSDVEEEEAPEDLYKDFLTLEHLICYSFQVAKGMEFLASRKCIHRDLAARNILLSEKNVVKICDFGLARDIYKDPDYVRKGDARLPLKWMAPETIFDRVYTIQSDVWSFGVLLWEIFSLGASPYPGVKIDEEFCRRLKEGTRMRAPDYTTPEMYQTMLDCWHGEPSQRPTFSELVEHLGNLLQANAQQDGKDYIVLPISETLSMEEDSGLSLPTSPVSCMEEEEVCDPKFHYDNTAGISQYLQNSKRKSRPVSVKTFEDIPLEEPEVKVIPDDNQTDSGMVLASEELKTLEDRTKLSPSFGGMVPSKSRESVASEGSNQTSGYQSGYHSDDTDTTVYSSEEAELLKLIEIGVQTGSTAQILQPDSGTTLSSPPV
# RET = RET (Homo sapiens, UniProt P07949); test: Binding kinetics assay (surface plasmon resonance) RET; settings: SPR, 22 °C
# AurB = AurB (Homo sapiens, UniProt Q96GD4); test: Binding kinetics assay (surface plasmon resonance) AUR-B; settings: SPR, 22 °C
# Description: (§1) Binding Kinetics Assay wt-BTK, BTK C481S, LCK, FGFR1, FLT3, PDGFR-β, FMS, LYN, MEK1, AUR-B. ITK. VEGFR, EGFR, FGFR3, AXL, c-MET, SRC, YES, ABL, RET and IGFR1 (Surface Plasmon Resonance)
# (§2) Streptavidin-coated chips (Cat. No. BR100531), disposables and maintenance kits for Biacore were purchased from Cytiva (Eindhoven, The Netherlands). Biotinylated wt-BTK enzym (Carna Biosciences, cat. no. 08-480-20N), BTK C481S (Carna Biosciences, cat. no. 08-417-20N), LCK (Carna Biosciences, cat. no. 08-470-20N), FGFR1 (Carna Biosciences, cat. no. 08-435-20N), FLT3 (Carna Biosciences, cat. no. 08-454-20N), PDGFR-β (Carna Biosciences, cat. no. 08-458-20N), FMS (Carna Biosciences, cat. no. 08-455-20N), LYN (Carna Biosciences, cat. no. 08-471-20N), MEK1 (Carna Biosciences, cat. no. 07-441-10-20N), AUR-B (Carna Biosciences, cat. no. 05-402-21N), ITK (Carna Biosciences, cat. no. 08-481-20N), VEGFR (Carna Biosciences, cat. no. 08-491-20N), EGFR (Carna Biosciences, cat. no. 08-415-20N), FGFR3 (Carna Biosciences, cat. no. 08-433-20N), AXL (Carna Biosciences, cat. no. 08-407-20N), c-MET (Carna Biosciences, cat. no. 08-451-20N), SRC (Carna Biosciences, cat. no. 08-473-20N), YES (Carna Biosciences, cat. no. 08-475-20N), ABL (Carna Biosciences, cat. no. 08-401-20N), RET (Carna Biosciences, cat. no. 08-459-20N) or IGFR1 (Carna Biosciences, cat. no. 08-441-20N) were immobilized on a streptavidin-coated chip to a level of about 8000 resonance units (RU) using Biacore buffer (50 mM Tris pH 7.5, 0.05% (v/v) Tween-20, 150 mM NaCl and 5 mM MgCl2)+1 mM TCEP. Remaining streptavidin was blocked with biocytin. Immobilization was performed at 4 °C. Subsequent assay steps were conducted at 22 °C. After changing buffer to Biacore buffer with 1% (v/v) dimethylsulfoxide (DMSO), a pre-run was performed for a period of at least 30 min at a flow rate of 30 μl/min to obtain a stable surface. The kinetic constants of the compounds were determined with single cycle kinetics with five consecutive injections with an increasing compound concentration with ranges of 3.16-316 nM. Experiments were performed with an association time of 100 s per concentration and a dissociation time of 1200 s, except for compounds with a long target residence time, such as irreversible inhibitors, where dissociation time was increased. To circumvent problems of mass transport limitation, a flow rate of 30 μl/min was used. A blank run with the same conditions was performed before the compound was injected. The SPR sensorgrams were analyzed with Biacore Evaluation Software by using a method of double referencing. First the reference channel was subtracted from the channel containing immobilized protein. Subsequently, the reference curve obtained with buffer injections was subtracted. The resulting curve was fitted with a 1:1 binding model. Compounds that bound according to an induced fit model were fitted with a two-state reaction model. The kinetic constants (ka, ka, KD) of duplicates were geometrically averaged. Target residence time (τ) for the 1:1 binding model was calculated from the dissociation constant kd with the formula T=1/kd. Target residence for an induced fit model was calculated as described (Tummino and Copeland, 2008).
# VEGFr = VEGFr (Homo sapiens, UniProt P35968); test: Binding kinetics assay (surface plasmon resonance) VEGFR; settings: SPR, 22 °C
# Description: as §1
# as §2, with “Immobilization was performed at 4 °C. Subsequent assay steps were conducted at 22 °C. After changing buffer to Biacore buffer with 1% (v/v) dimethylsulfoxide (DMSO), a pre-run was performed for a period of at least 30 min at a flow rate of 30 μl/min to obtain a stable surface.” left out, “Experiments were performed with an association time of 100 s per concentration and a dissociation time of 1200 s, except for compounds with a long target residence time, such as irreversible inhibitors, where dissociation time was increased. To circumvent problems of mass transport limitation, a flow rate of 30 μl/min was used. A blank run with the same conditions was performed before the compound was injected.” left out, “First the reference channel was subtracted from the channel containing immobilized protein. Subsequently, the reference curve obtained with buffer injections was subtracted. The resulting curve was fitted with a 1:1 binding model. Compounds that bound according to an induced fit model were fitted with a two-state reaction model. The kinetic constants (ka, ka, KD) of duplicates were geometrically averaged.” left out
# [1] = test system: REC-1 mantle cell lymphoma cells; test: Cell proliferation assay REC-1; settings: read-out: IC50 value, REC-1 cells, 120 hours
# [2] = test system: CTV-1 T acute lymphoblastic leukemia cells; test: Cell proliferation assay CTV-1; settings: read-out: IC50 value, CTV-1 cells, 72 hours
# Procedure: CTV-1 T acute lymphoblastic leukemia cells were purchased from Deutsche Sammlung von Mikroorganismen und Zellkulturen (cat. no. ACC 40, DSMZ). Frozen stocks were thawed and cells were diluted in RPMI-1640 cell culture medium (cat. no. 61870036, Life Technologies), supplemented with 10% (v/v) bovine calf serum and 1% penicillin/streptavidin. 1600 cells per well (in 45 μl) were seeded in a white 384-well culture plate (cat. no. 781080, Greiner Bio-One) and allowed to rest for 24 hours at 37 °C, 95% humidity, and 5% CO2. 5 μl compound solution was added to the cells and incubation was continued for 72 hours (3 days), followed by addition of 24 μl ATPlite 1Step™ (PerkinElmer, Groningen, The Netherlands) solution was added to each well. Luminescence was recorded on an Envision multimode reader. The cell signal at the start of incubation was recorded separately in order to distinguish between cell population growth and cell death. In addition, maximum growth was determined by incubation of a duplicate without compound in the presence of 0.3% DMSO. Percentage growth was used as the main y-axis signal. IC50s were fitted by non-linear regression using IDBS XLfit™5 using a 4-parameter logistic curve, yielding a maximum signal, minimum signal, hill-parameter and IC50.
Kd (RET) [nM],Target residence time Tau (τ) (RET),Kd (AurB) [nM],Target residence time Tau (τ) (AurB),Kd (VEGFr) [nM],Target residence time Tau (τ) (VEGFr),IC50 [1] [nM],IC50 [2] [nM],SMILES
< 5,C (τ 3 h),–,–,–,–,–,–,CC(C)(C)c1cc(NC(=O)Cc2ccc(-c3nc4n5c(cnc(N)c35)/C=C/CCOCCC(=O)N[C@@H]3CCC[C@@H]4C3)cc2)no1
–,–,5 to 50,C (τ 3 h),< 5,B (τ between 1 and 3 h),< 50,< 50,Nc1ncc2c3c1c(-c1ccc(C(=O)Nc4cc(C(F)(F)F)ccn4)cc1)nn3[C@@H]1CCC[C@H](C1)NC(=O)[C@H]1CN(C/C=C/2)CCN1
